The conditions of data set [1]: cited from earlier work.
The conditions of data set [2]: human urine, occupational exposure to non-ferrous metal smelting; 77 of 100 cases with total arsenic exceeding warning line 0.032 mg/L.

The source of these data is patent publication US20250110108A1 (priority 2022, published 2025).

For the molecule `C[As](=O)(O)O`, the pka in data set [1] is 4.6.

Take Arsenic betaine: in data set [2], the “arithmetic mean value of concentration in urine” value was found to be 3.76 ± 10.4 µg/L, the “concentration range in urine” value lay in the range of 0 to 82.9 ng/mL and the “median concentration in urine” value is 0.817 µg/L.
